Source: patent US7737127B2, “2-propynyl adenosine analogs having A2A agonist activity and compositions thereof” (University of Virginia Patent Foundation, priority 2001, dated 2010)

Sequences of proteins named here, by UniProt entry; tags and fusion partners are left off.
UniProt P30542, whole entry: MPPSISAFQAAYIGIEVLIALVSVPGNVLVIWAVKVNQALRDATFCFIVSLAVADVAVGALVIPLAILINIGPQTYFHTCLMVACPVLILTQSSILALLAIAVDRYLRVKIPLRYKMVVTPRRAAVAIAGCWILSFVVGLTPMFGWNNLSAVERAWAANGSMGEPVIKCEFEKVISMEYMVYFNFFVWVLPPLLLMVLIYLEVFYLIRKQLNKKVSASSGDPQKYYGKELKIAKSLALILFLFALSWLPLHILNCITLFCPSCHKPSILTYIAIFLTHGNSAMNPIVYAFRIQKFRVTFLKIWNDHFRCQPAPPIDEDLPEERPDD
UniProt P0DMS8, whole entry: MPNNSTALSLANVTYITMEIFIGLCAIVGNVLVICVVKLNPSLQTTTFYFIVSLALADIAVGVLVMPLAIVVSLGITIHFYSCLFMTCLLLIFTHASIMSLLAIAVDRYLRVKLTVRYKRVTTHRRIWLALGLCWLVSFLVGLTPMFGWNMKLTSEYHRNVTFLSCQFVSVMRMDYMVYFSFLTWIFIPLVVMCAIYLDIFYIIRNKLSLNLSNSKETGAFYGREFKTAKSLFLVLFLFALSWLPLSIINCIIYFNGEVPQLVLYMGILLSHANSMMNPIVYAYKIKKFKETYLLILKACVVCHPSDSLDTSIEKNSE

Assays:
[1] = tested on: human neutrophils; test: Human neutrophil oxidative activity, luminol-enhanced chemiluminescence; format: cell-based
[2] = molecular target: human A1 AR (Homo sapiens, UniProt P30542); test: Radioligand competition binding (125I-ABA) to human A1 AR in CHO K1 cell membranes
[3] = molecular target: A3 AR (Homo sapiens, UniProt P0DMS8); test: Radioligand competition binding (125I-ABA) to human A3 AR in HEK 293 cell membranes
[4] = molecular target: recombinant human A2A receptors (Homo sapiens, UniProt P29274); test: Radioligand competition binding to recombinant human A2A receptors in Sf9 cell membranes; conditions: read-out: A2A ± SEM, Ki from competition binding

## CCNC(=O)[C@H]1O[C@@H](n2cnc3c(N)nc(C#CCN4CCC(C(=O)OC)CC4)nc32)[C@H](O)[C@@H]1O
[1]; human neutrophil experiment w/Rolipram
  PMN oxid + roli (-log EC50): 8.5
[1]; human neutrophil experiment w/o Rolipram
  PMN oxid (-log EC50): 7.52
[2]; read-out: A1 ± SEM, Ki from competition binding, 125I-ABA, CHO K1 cell membranes
  Ki: 47.3 nM
[2]; selectivity ratio A1 over A2A
  A1/A2A: 7.9
[3]; read-out: A3 ± SEM, Ki from competition binding, 125I-ABA, HEK 293 cell membranes
  Ki: 58.5 nM
[3]; selectivity ratio A3 over A2A
  A3/A2A: 9.7
[4]
  Ki: 6.02 nM
